One experiment concerns PLP induced EAE mice. As to conditions: compounds 10 mg/kg i.p. daily from first EAE symptoms, mycophenolate 20 mg/kg from day 14. As for the experimental part:
(A-E) SJL mice were immunized with proteolipid peptide (PLP) and pertussis toxin and monitored daily with scoring on the standard clinical EAE scale (0-5). Compounds were administered daily for the duration of the study in saline at 10 mg/kg via intra-peritoneal injection (0.1 ml), starting on the day of the appearance of clinical EAE symptoms (day 10). […] Mean clinical EAE score and standard error of mean (SEM) are shown for each study group.
FIG. 25. […] EAE was induced in mice using PLP and pertussis toxin. […] Prophylactic dosing is defined as administration of compound commenced on the day of PLP injection. Error bars indicate standard deviation of the mean within each group of 8 mice.
(A-F) EAE was induced in mice using PLP and pertussis toxin. […] Error bars indicate standard deviation of the mean within each group of 8 mice.
(A-F) EAE was induced in mice by injecting PLP in complete Freund's adjuvant (CFA) and pertussis toxin, and the animals were scored daily for clinical severity of disease on a scale of 0-5. […] Error bars indicate standard deviation of the mean within each group of 8-10 mice.
10 week old SJL mice were immunized with PLP emulsion and pertusis toxin to induce EAE. […] Compounds were administered daily via intraperitoneal injection of 100 ul in sterile saline at 10 mg/kg alone or in combination with mycophenolate motefil in sterile saline at pH 5 at 20 mg/kg. […] The mice were scored daily on a standard EAE scale of 0-5.
This model is most commonly used to evaluate the potential efficacy of immunomodulatory agents, but can also be used to determine the effectiveness of promyelinating agents that function by enhancing OPC differentiation (M. Fernandez et al., Proc Natl Acad Sci U.S.A, 101, 16363 (2004); X. Lee et al., J Neurosci, 27, 220 (2007); reviewed in R. J. Franklin, C. Ffrench-Constant, Nat Rev Neurosci, 9, 839 (2008)). […] We next evaluated efficacy when the drug is dosed therapeutically, by starting daily injections at the first sign of disease onset. […]

The subject of experiment [1] is M1/M3 muscarinic receptors. As to conditions: OPCs; for effect on carbachol induced Ca2+ influx: carbachol 100 uM, compound at EC90. As for the experimental part: Following 6 days of treatment, cells were fixed and stained for MBP. Plates were imaged using the OPERA high content screening system and MBP staining was quantified as described. […] OPCs were plated in 384-well plates at 5000 cells per well in media containing basal PDGF-αα. Cells were equilibrated with Ca^2+ sensitive Fluo-3AM® dye in HBSS for 30 min. […] Ca^2+ influx was immediately measured using the FLIPR TETRA® system.
(A-C) OPCs were plated in differentiation media for 12 hours. […] (C) Atropine, a muscarinic antagonist, serves as a positive control. (D) OPCs were plated in differentiation medium for 12 hours. A cAMP-HTRF assay was performed using the cAMP dynamic 2 kit. […] IBMX was added as a cAMP stabilizer, and forskolin was a positive control.

Experiment [2] deals with rat optic nerve derived OPCs. In words: High content imaging assay of OPC differentiation (MBP immunostaining, OPERA). It counts as cell-based. As to the method: FIG. 1A-C. […] The calculated EC50 values were determined using appropriate Graphpad Prism 5.0 curve fitting software. […] OPCs were plated in 384 well plates at 1000 cells per well in OPC media containing basal PDGF-αα (2 ng/mL) and treated with serial dilutions of compounds. Following six days of compound treatment, cells were fixed and subjected to immunofluorescence analysis using anti-myelin basic protein (MBP) antibody. Image acquisition and quantification of MBP staining was performed using the OPERA imaging system.
FIG. 11A-B. Screen to identify inducers of OPC differentiation. (A) OPCs were maintained as proliferating A2B5-positive cells under basal growth conditions (Neurobasal medium, B27 supplement without Vitamin A, non-essential amino acids, L-Glutamine, 30 ng/ml PDGF). OPCs were plated in basal differentiation media (Neurobasal medium, B27 supplement without Vitamin A, non-essential amino acids, L-Glutamine, 2 ng/ml PDGF), treated with DMSO (<0.1%) or thyroid hormone (1 uM), fixed after 6 days in culture, and stained using antibodies for CNP, O4, or MBP. […]
FIG. 12A-B. Primary hit confirmation. […] (EC50) is defined as the concentration that results in a half maximal increase in the percentage of total cells that express MBP as detected by immunostaining. […]

“Also recorded” adds a separate entry of the source. Like-named read-outs stand apart in the source and are kept apart here.

`CN1CCC[C@@H]1CCO[C@](C)(c1ccccc1)c1ccc(Cl)cc1` [clemastine]: the “clinical severity versus vehicle, dosing after disease onset (therapeutic mode)” value in the experiment on PLP induced EAE mice is on record as “significantly decreased clinical severity in the relapse phase”. In addition, the “effect on carbachol induced Ca2+ influx” value in experiment [1] is on record as “inhibit”.

In the case of `CCCN1CCC[C@@H]2Cc3n[nH]cc3C[C@H]21` [Quinpirole, quinpirole], the “induction of OPC differentiation (MBP staining)” value in experiment [2] is given as “did not induce significant differentiation”.

For `C[N+](C)(C)CCOC(N)=O` [Carbachol, carbachol], the “intracellular Ca2+ levels” value in experiment [1] (calcium flux measured for 186 seconds) is listed as “dose dependent increase”.

Consider `CN1[C@@H]2CC[C@H]1C[C@@H](OC(c1ccccc1)c1ccccc1)C2` [benztropine], for which the “clinical severity versus vehicle, dosing after disease onset (therapeutic mode)” value with PLP induced EAE mice was “significantly reduced the intensity of relapse; also recorded: significantly decreased clinical severity in the relapse phase; also recorded: significant decreases in clinical severity in remission phases observed and the occurrence of relapse again virtually eliminated”; in the experiment with PLP induced EAE mice (listed as Benztropine), “decreased the clinical severity of disease”. Moreover, the results for the “effect on carbachol induced Ca2+ influx” value in experiment [1], in experiment [1] (listed as Benztropine) and in experiment [1] (listed as benzatropine) were “inhibits carbachol induced calcium influx”, “dose dependently blocked” and “inhibit”, respectively.

The values above are taken from patent US11246873B2, “Directed differentiation of oligodendrocyte precursor cells to a myelinating cell fate” (The Scripps Research Institute, priority 2011, dated 2022).
